The values that follow come from US12286452B2, “Amphiphilic aminoglycoside connexin hemichannel inhibitors” (Texas Tech University System, priority 2018, dated 2025).

Chains of the proteins cited; added tags and fusions are not shown.
UniProt P17302, whole entry: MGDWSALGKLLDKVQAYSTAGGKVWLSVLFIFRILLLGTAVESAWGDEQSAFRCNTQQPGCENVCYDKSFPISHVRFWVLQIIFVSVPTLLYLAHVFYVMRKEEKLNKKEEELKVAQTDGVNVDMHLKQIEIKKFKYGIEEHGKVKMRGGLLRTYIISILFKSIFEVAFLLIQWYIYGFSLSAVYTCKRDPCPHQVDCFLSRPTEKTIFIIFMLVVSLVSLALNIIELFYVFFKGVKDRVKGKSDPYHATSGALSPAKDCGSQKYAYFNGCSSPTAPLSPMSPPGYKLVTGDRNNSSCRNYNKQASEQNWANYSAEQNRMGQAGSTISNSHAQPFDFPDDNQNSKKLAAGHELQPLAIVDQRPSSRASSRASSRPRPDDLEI

Each structure is given as a SMILES string.

The target of the assay is T1, Cx43 HCs (Homo sapiens, UniProt P17302).
T1 construct: expressed in transfected cells
Nature of the assay: Cx43-dependent growth complementation assay in E. coli LB2003. Type of assay: cell-based. Particulars: Table 7.

As a reminder, the IC50 is the point on the concentration scale where inhibition reaches its midpoint. `NCC1O[C@H](OC2C(N)CC(N)C(OC3O[C@H](CO)C(O)C(N)[C@H]3O)C2O)C(O)[C@@H](O)[C@@H]1O` (stereo in doubt) [Kanamycin A, reference compound] returned an IC50 of 48 ± 2 µM.
